Tests used:
[1] = target: CK2 holoenzyme (Homo sapiens (Human), UniProt P68400); assay: capillary electrophoretic CK2 inhibition/activity test (E-peptide substrate); assay type: biochemical; conditions: ten minutes pre-incubation
[2] = tested on: CK2; conditions: prior-art value; read-out: IC50 (CK2, literature); cited from earlier work

Sequences of proteins named here, by UniProt entry; tags and fusion partners are left off.
UniProt P68400, whole entry: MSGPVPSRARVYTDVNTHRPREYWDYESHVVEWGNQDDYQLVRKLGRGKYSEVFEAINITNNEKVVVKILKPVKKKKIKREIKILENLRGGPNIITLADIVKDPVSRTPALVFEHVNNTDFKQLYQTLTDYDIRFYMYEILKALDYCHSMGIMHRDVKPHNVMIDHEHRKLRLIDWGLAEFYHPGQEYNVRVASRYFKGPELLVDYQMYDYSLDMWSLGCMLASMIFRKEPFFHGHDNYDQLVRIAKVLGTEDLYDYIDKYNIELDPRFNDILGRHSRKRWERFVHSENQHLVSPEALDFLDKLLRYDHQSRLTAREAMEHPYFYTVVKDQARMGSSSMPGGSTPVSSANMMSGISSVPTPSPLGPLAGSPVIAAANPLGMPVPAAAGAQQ

SMILES	IC50 [1] [nM]	IC50 [2] [nM]
CC(C)=CC(=O)c1oc2c(Cl)c(Cl)c(O)c(C#N)c2c1N [Ric151]	200	–
CN(C)c1nc2c(Br)c(Br)c(Br)c(Br)c2[nH]1 [DMAT, 2-dimethylamino-4,5,6,7-tetrabromobenzimidazole]	–	140

From patent publication US9303005B2, “Use of dibenzofuranone derivatives to inhibit kinases” (priority 2010, dated 2016)
